pEC50: −log10 of the molar value.
Test: Stimulation of mitogenesis in Dopamine receptor D3 transfected CHO p-5 cells

## COc1c(C(=O)NCCN2CCN(c3cccc(Cl)c3Cl)CC2)cc(Br)c2ccccc12 [4-Bromo-1-methoxy-naphthalene-2-carboxylic acid {2-[4-(2,3-dichloro-phenyl)-piperazin-1-yl]-ethyl}-amide]
  pEC50: 7.89
